Paper PMC5746119, “Pharmacologic characterization of SHR8443, a novel dual inhibitor of phosphatidylinositol 3-kinase and mammalian target of rapamycin” (Oncotarget, 2017)

Tested on: trastuzumab-resistant BT-474/trastuzumab xenografts
Test: Tumor xenograft growth inhibition
Format: in vivo, Balb/cA-nude mice
Details: 5 mg/kg intravenously twice a week
Procedure: Female, 5–6-wk-old Balb/cA-nude mice were purchased from Shanghai Laboratory Animal Center, Chinese Academy of Sciences (Shanghai, China). […] Tumor volume was calculated as (length × width^2)/2.

trastuzumab: anti-HER2 antibody, purchased from Roche
tumor growth inhibition (TGI): 25%
